This assay has as its target human recombinant GPR65 (Homo sapiens, UniProt Q8IYL9). The experiment in a line: Human GPR65 cAMP HTRF antagonist assay. It is filed as cell-based. As to conditions: read-out: hGPR65 IC50; 1321N1-hrGPR65 cells, assay pH of 7.2, cAMP HTRF. An excerpt:
The “Human GPR65 cyclic adenosine monophosphate (cAMP) Homogeneous Time Resolved Fluorescence (HTRF) antagonist assay”, or simply “cAMP assay”, as described below, can be used to measure the potency of GPR65 modulators, which is expressed as the concentration of compound required to reduce the increase in cAMP concentration upon GPR65 activation by 50% (i.e. an IC50).
Human GPR65 Cyclic Adenosine Monophosphate (cAMP) Homogeneous Time Resolved Fluorescence (HTRF) Antagonist Assay Procedure
IC50 data was obtained by the following procedure:
1321N1 human astrocytoma cells stably expressing human recombinant GPR65 (1321N1-hrGPR65 cells, EuroscreenFast) were cultured according to the vendor's instructions.
Compounds were tested for their ability to antagonise GPR65, through measuring the concentration of cytoplasmic cAMP following treatment of the cells at a pH of 7.2 to activate GPR65 signalling and addition of the compound to be tested. […]
Accumulation of cAMP was detected by cAMP HTRF kit (Cisbio). d2-labeled cAMP and cryptate-labeled anti-cAMP antibody in Lysis and Detection Buffer (Cisbio) were added to assay plates, and the plates were incubated at room temperature for 1 h. […] Acceptor and donor emission signals were measured at 665 nm and 620 nm, respectively, and HTRF ratios were calculated as signal665 nm/signal620nm×10^4. […]
A general note: Time-resolved FRET reads energy transfer from a long-lived donor to a nearby acceptor.

By UniProt entry, the sequences of proteins in these tests, tags left out.
UniProt Q8IYL9, whole entry: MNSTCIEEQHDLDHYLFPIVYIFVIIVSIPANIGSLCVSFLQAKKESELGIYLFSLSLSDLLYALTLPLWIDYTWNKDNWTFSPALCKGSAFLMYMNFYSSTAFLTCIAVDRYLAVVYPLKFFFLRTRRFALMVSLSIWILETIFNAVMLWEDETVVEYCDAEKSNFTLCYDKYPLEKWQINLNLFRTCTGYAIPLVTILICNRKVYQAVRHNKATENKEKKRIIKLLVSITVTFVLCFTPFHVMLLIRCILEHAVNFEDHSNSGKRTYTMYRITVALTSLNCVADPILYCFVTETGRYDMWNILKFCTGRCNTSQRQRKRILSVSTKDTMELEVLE

As to `O=C(Nc1cnc(Cl)c(Cl)c1)N1[C@H]2CC[C@@H]1c1ccnc(F)c1C2`, the IC50 (in general, the midpoint of a concentration-inhibition curve) lay in the range of 500 to 5000 nM.

(Values after US12649744B2, “N-(pyridin-2-yl)-6,7,8,9-tetrahydro-5h-5,8-epiminocyclohepta[c]pyridine-10-carboxamide derivatives and similar compounds as GPR65 modulators for the treatment of cancer” (PATHIOS THERAPEUTICS LIMITED, priority 2020, dated 2026).)
